Assay results: patent US6988446B2, “Purified nitric oxide synthase” (priority 1996, dated 2006)

Chains of the proteins cited; added tags and fusions are not shown.
UniProt P29476, whole entry: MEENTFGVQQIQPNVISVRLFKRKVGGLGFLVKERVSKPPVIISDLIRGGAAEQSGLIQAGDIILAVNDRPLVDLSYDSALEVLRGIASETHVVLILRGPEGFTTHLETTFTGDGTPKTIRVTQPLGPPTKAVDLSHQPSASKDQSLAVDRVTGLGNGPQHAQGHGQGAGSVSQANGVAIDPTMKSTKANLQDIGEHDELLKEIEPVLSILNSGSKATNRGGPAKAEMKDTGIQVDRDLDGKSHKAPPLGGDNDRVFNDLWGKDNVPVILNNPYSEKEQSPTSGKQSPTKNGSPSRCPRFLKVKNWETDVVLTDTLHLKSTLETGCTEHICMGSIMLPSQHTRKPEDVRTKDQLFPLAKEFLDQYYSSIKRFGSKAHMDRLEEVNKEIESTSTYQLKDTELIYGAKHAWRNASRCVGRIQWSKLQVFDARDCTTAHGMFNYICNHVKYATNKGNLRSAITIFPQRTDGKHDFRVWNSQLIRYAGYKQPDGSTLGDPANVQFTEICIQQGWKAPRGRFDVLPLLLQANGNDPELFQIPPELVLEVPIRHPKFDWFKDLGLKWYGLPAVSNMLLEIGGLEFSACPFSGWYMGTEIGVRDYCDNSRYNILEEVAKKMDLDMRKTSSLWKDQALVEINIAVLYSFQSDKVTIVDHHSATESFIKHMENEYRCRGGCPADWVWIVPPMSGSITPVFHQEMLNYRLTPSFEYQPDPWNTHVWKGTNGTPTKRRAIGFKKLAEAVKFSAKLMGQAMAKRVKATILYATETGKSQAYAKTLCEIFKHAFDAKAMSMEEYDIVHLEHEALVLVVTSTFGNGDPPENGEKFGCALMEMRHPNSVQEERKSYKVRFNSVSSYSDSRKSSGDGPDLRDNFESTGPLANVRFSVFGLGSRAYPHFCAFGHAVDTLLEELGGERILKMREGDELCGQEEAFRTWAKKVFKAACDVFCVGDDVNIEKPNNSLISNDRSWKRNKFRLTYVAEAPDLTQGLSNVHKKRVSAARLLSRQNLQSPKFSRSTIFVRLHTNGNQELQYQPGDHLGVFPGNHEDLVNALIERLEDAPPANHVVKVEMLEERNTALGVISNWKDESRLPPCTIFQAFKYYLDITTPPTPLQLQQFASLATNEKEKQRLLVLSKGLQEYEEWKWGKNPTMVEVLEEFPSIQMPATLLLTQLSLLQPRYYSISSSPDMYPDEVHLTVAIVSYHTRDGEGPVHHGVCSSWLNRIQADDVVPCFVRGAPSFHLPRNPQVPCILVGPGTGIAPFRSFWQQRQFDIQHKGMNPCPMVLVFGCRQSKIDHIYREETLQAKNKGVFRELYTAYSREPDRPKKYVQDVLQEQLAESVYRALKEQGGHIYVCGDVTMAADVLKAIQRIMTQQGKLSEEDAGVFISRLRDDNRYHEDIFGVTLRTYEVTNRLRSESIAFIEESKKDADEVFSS

Molecular target: nNOS-II (Rattus norvegicus, UniProt P29476)
Assay: Kinetic determinations (KM, Vmax, Ki) with the standard enzyme assay
Format: biochemical
Conditions: substrate of nNOS-II, calmodulin added when L-arginine is substrate
Method: NOS Activity Assay: NOS activity was determined spectrophotometrically by the rapid and quantitative oxidation of oxyhemoglobin to methemoglobin (Feelish et al., Eur. J. Pharmacol. 139:19-30 (1987); Olken et al., Biochem. Biophys. Res. Commun. 177:828-833 (1991)).
Thus, reaction mixtures for NOS assays containing 50 mM Tris-HCl buffer (pH 7.5), were optimized to contain 4 μM oxyhemoglobin, 100 μM NADPH, 1 mM CaCl2, 10 μM FAD, 10 μM FMN, 20 μM BH4, 150 μM DTT, 100 μM BK or L-arginine and 0.1-3 μg enzyme in a final volume of 0.5 mL.
Thus, calmodulin (10 μg/mL) was added to the reaction mixtures when L-arginine was used as substrate.
Kinetic data were calculated by fitting experimental data to the EZ-FIT program (Perrella, Anal. Biochem. 174.437-447 (1988)).
NOS activity assay. NOS activity was determined spectrophotometrically by the rapid and quantitative oxidation of oxyhemoglobin to methemoglobin (10,11). Optimized reaction mixtures for NOS assays contained 50 mM Tris-HCl buffer (pH 7.5), and were optimized to contain 4 μM oxyhemoglobin, 100 μM NADPH, 1 mM CaCl2, 10 μM FAD, 10 μM FMN, 20 μM BH. 150 μM DTT, 100 μM BK or L-arginine and 0.1-3 μg enzyme in a final volume of 0.5 ml. Calmodulin (10 μg/ml) was added to the reaction mixtures when L-arginine was used as substrate.
Kinetic determinations. […] Kinetic data were calculated by fitting experimental data to EZ-FIT program (12).

## Cit^1-BK: synthetic nonapeptide in which the N-terminal arginine of BK is replaced with citrulline
  apparent Vmax: 1.6 μmol/min/mg protein
read-out: apparent KM
  Km: 6.2 µM
